The values that follow come from US7910102B2 (priority 2006, dated 2011).

By UniProt entry, the sequences of proteins in these tests, tags left out.
UniProt P22001, whole entry: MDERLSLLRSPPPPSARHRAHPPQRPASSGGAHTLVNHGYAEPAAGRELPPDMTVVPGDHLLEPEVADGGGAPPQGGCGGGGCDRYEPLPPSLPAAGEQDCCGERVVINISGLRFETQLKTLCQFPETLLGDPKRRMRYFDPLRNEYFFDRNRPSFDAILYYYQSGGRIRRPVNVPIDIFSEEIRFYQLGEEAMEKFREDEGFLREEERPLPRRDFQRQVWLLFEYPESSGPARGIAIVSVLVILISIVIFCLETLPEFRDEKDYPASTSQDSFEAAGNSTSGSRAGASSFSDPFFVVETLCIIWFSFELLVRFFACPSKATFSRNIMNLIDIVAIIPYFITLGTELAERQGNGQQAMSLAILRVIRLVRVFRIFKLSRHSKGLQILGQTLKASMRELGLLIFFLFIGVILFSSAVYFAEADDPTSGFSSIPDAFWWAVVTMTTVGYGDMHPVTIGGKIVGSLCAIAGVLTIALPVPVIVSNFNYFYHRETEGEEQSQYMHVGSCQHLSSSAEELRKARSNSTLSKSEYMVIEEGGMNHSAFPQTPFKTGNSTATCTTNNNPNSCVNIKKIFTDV

This assay addresses human Kv1.3 (Homo sapiens, UniProt P22001). In kind it is cell-based. On the set-up: expressed in transfected cells.

With `CC[C@H](C)[C@@H]1NC(=O)[C@H](CCCCN)NC(=O)[C@@H](NC(=O)[C@H](CCCCN)NC(=O)[C@@H](NC(=O)[C@H](CC(N)=O)NC(=O)[C@@H](NC(=O)[C@@H](NC(=O)[C@@H](NC(=O)CN)C(C)C)[C@@H](C)CC)[C@@H](C)CC)C(C)C)CSSC[C@@H]2NC(=O)[C@H](CCCCN)NC(=O)CNC(=O)[C@H](Cc3ccccc3)NC(=O)[C@H](CCCNC(=N)N)NC(=O)[C@H](CCSC)NC(=O)CNC(=O)[C@H](C)NC(=O)[C@H](CCCCN)NC(=O)[C@H](CCCCN)NC(=O)[C@@H]3CSSC[C@@H](C(=O)N[C@H](C(=O)N4CCC[C@H]4C(=O)N[C@@H](CCCCN)C(=O)O)[C@@H](C)O)NC(=O)[C@H](Cc4c[nH]cn4)NC(=O)[C@H](CSSC[C@H](NC(=O)[C@H](CCC(N)=O)NC(=O)[C@H](CCCNC(=N)N)NC(=O)[C@H](CO)NC1=O)C(=O)N[C@@H](CC(C)C)C(=O)N[C@@H](CCC(=O)O)C(=O)N1CCC[C@H]1C(=O)N3)NC(=O)[C@H](CCCCN)NC(=O)CNC(=O)[C@H](CC(N)=O)NC(=O)[C@H](CCSC)NC2=O` [OSK1], the “Kv1.1 IC50 relative to Kv1.3 IC50” value stood at 5 fold.
